# Assay results taken from patent US8815935B2, “Inhibitors of protein prenyltransferases” (The Regents of the University of California, priority 2008, dated 2014).
# Chains of the proteins cited; added tags and fusions are not shown.
# UniProt P53610, whole entry: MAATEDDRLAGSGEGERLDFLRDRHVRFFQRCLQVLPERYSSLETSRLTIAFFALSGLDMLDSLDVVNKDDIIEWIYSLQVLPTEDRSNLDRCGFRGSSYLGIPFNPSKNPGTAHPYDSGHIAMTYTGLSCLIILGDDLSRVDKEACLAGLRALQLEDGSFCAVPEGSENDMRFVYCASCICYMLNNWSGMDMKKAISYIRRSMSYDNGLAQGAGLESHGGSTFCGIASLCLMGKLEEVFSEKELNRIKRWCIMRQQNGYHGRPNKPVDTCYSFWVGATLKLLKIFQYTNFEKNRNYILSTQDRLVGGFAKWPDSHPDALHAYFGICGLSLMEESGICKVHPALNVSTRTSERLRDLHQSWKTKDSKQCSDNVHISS
# UniProt Q02293, whole entry: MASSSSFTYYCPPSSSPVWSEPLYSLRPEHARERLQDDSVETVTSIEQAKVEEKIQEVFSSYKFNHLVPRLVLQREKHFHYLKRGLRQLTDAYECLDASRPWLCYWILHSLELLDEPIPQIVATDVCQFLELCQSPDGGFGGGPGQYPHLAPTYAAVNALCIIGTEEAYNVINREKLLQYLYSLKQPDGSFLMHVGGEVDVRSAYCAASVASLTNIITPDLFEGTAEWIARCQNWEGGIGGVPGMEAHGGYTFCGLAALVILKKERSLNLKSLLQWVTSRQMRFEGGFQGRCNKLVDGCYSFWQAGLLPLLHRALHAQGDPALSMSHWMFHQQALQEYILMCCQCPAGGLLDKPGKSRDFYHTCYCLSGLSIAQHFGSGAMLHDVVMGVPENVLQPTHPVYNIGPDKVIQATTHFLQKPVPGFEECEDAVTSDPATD
# UniProt Q08602, whole entry: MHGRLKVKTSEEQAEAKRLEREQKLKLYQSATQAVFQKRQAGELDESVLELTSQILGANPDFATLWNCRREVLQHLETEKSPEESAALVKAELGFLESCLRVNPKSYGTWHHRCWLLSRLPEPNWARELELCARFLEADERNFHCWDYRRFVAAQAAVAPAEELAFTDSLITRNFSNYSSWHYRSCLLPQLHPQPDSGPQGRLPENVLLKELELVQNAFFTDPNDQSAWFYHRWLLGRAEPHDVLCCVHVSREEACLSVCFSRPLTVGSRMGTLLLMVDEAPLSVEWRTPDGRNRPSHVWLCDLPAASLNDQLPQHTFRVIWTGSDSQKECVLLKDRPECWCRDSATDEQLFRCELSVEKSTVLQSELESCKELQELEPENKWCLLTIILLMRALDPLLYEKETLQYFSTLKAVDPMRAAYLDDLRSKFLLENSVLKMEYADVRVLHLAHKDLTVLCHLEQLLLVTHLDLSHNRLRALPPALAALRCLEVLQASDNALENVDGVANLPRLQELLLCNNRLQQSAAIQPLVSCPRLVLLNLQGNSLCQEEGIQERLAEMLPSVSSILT
# UniProt Q08603, whole entry: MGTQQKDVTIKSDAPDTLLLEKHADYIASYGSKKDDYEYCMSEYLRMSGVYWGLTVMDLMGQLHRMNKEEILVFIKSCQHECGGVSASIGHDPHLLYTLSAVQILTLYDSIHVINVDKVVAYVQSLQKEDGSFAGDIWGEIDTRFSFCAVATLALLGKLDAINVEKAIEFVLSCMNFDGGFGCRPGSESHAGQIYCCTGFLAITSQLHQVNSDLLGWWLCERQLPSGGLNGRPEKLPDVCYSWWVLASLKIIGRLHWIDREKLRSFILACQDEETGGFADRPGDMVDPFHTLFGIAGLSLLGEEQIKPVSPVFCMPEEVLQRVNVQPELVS
# Key:
# GGTase-I = GGTase-I (Rattus norvegicus, UniProt P53610+Q04631); assay: In vitro GGTase-I enzyme assay (IC50, kinetics); conditions: read-out: In vitro (enzyme assay) IC50, GGTase I; Tables 5, 14
# Method: (§1) The GGTase-I assay was carried out using RhoA as a substrate protein, GGTase-I (JENA Bioscience) and [3H]geranylgeranyl pyrophosphate. Incubation was for 30 min at 37° C. GGTase-II (or RabGGTase) assay was carried out using YPTI as a substrate protein, GGTase-II (Calbiochem, San Diego, Calif.) plus REP1 (Calbiochem) and [3H]geranylgeranyl pyrophosphate. Incubation was for 30 min at 37° C. FIGS. 20D-20F show the three dimensional structure of GGTase I (D), FTsse (E) and GGTase II (F) which can be obtained from X-ray diffraction studies of protein crystals.
# GGTase-I and FTase activities were determined by following the incorporation of radiolabeled isoprenoid [^3H]-geranylgeranyl or [^3H]-farnesyl into substrate proteins. FTase or GGTase-I (50 nM) were used to initiate reactions containing 0.4 μM of [^3H]-FPP or 0.5 μM of [^3H]-GGPP and 2 μM of MBP-tagged substrates (K-Ras4B for FTase; RhoA for GGTase-I) in 20 μl of buffer {50 mM Tris-HCl (pH 7.5), 10 mM MgCl2, […] and 5 mM DTT}. Inhibitors were added at the indicated concentrations. The final DMSO concentration was 2.5% for all samples.
# Reactions were carried out for 10 min at 30° C. The reaction mixture was spotted onto a filter paper, treated with 10% trichloroacetic acid (TCA) followed by ethanol and acetone washing. The filter was counted using a scintillation counter. […]
# FTase = FTase (Rattus norvegicus, UniProt Q02293+Q04631); assay: In vitro FTase assay (K-Ras4B substrate, [3H]FPP); conditions: P3-D9, P3-E5: concentration increased to 100 (unit not given)
# Source text: To further characterize the pilot library, inhibitors of protein farnesyltransferase were identified. This was accomplished by using K-Ras4B as a substrate protein, tritiated farnesylpyrophosphate ([^3H]FPP) and protein farnesyltransferase. See Finegold, A. A., Johnson, D. I., Farnsworth, C. C., Gelb, M. H., Judd, S. R., Glomset, J. A. and Tamanoi, F. (1991) Protein geranylgeranyltransferase of Saccharomyces cerevisiae is specific for Cys-Xaa-Xaa-Leu motif and requires the CDC43 gene product but not the DPR1 gene product. Proc. Natl. Acad. Sci. USA 88, 4448-4452. […] On the other hand, the structure of the compounds P1-F11, P2-B7 and P2-E9 resemble those of GGTIs. The FTI P1-F11 resembles the GGTI P1-F10, while the FTI P2-B7 resembles the GGTI P2-C10. The FTI P2-E9 is similar to the GGTI P2-G3. Similarity of some GGTI and FTI compounds may point to common structural features between the two closely related enzymes. As described before, FTase and GGTase I have similar three-dimensional structures and a shared alpha subunit. […]
# GGTase-I and FTase activities were determined by following the incorporation of radiolabeled isoprenoid [^3H]-geranylgeranyl or [^3H]-farnesyl into substrate proteins. […]
# Reactions were carried out for 10 min at 30° C. […] The filter was counted using a scintillation counter. […]
# [1] = system: Rap1 geranylgeranylation in NIH3T3 cells; assay: Unprenylated Rap1 immunoblot in NIH3T3 cells; conditions: 48 hours
# Method: The inhibition of GGTase-I catalyzed protein geranylgeranylation was assessed by examining the accumulation of unprenylated Rap1. To measure the level of unprenylated Rap1, cells were cultured in DMEM plus 10% (v/v) FBS overnight, and then DMSO or appropriate inhibitors were added. Incubation was continued for 48 hours. The cells were harvested and lysed in lysis buffer (20 mM Tris-HCl, pH 7.5, 150 mM NaCl, 1 mM EDTA, 1% NP-40 and 1× Protease Inhibitor Cocktail). Whole cell lysates of NIH3T3 cells were electrophoresed on a 12% SDS-PAGE, transferred to nitrocellulose membranes and immunoblotted with the antibody against unprenylated form of Rap1 (Santa Cruz Biotechnology catalog number sc-1482, goat), total-Rap1 (Santa Cruz: sc-65) or actin (Sigma: A4700). Actin was used as a loading control.
# [2] = system: H-Ras farnesylation in NIH3T3 cells; assay: H-Ras mobility shift immunoblot in NIH3T3 cells; conditions: 48 hours
# Method: K562 cells were treated with modified compounds for 72 hours and then cell number was counted. IC50 values of cell viability relative to the DMSO were measured. […] Data represent the mean+/−S.D. of two measurements from two independent experiments. *, P<0.05 compared with the value for DMSO. […] Whole cell lysates from cells treated with DMSO, P5-H6, P61-A6, GGTI (GGTI-298), FTI (BMS-225975) or RabGGTI (P49-F6) for 48 hours were prepared and processed for immunoblot analysis using antibody against unprenylated form of Rap1 (C: upper panel), Total-Rap1 (C: middle panel), H-Ras (D: upper panel), Rab5b (E: upper panel) or actin (C, D, and E: lower panel). The immunoblots shown represent two independent experiments for each treatment.
# This was examined by using a farnesylated protein H-Ras.
# RabGGTase = RabGGTase (Rattus norvegicus, UniProt Q08602+Q08603); assay: In vitro RabGGTase (GGTase-II) assay with REP-1; conditions: varying GGPP
# Method: as §1
# For RabGGTase assays, the reaction contained the following components in 20 μl; 0.625 μl of [^3H]-GGPP (0.7 μM), 25 nM RabGGTase, 0.6 μM REP-1, 0.6 μM purified Rab7 or Ypt1 protein, 40 mM HEPES (pH 7.5), 150 mM NaCl, 5 mM DTT, 3 mM MgCl2 and 0.3% CHAPS. Reactions were carried out for 20 min at 37° C. and the products were analyzed as described above for the GGTase-I reaction. Graphing and Michaelis-Menten analysis were performed using Prism version5 (GraphPad, San Diego Calif.).
# [3] = system: Rab5b geranylgeranylation in NIH3T3 cells; assay: Rab5b immunoblot and subcellular fractionation in NIH3T3 cells; conditions: 48 hours
# Method: The inhibition of Rab geranylgeranylation in cells (FIG. 43) was examined according to (29). Briefly, whole cell lysates were subjected to 15% SDS-PAGE containing 4M urea followed by immunoblotting with the antibody against Rab5b (Santa Cruz: sc-598) or actin. Subcellular fractionations (FIG. 44) were performed as described by Gomes et al. (30). Briefly, cells were treated with P49-F6 for 48 hours. After osmotic lysis, cell debris were removed by centrifugation at 500×g for 10 min, and the supernatant was subjected to ultracentrifugation at 100,000×g for 60 min. The supernatant of ultracentrifugation was collected as a soluble fraction. The pellet was collected as a membrane fraction. These fractions were subjected to electrophoresis on 10% SDS-PAGE gels followed by immunoblotting with the antibody against Rab5b. RhoGDI (Santa Cruz: sc-360) and Na^+/K^+ ATPase (Sigma: A276) were used as markers for soluble and membrane fractions, respectively.
compound,measurement,setting,value
CC(C)C[C@H](NC(=O)C1=CC[C@@H](c2cccc(Cl)c2)N(S(=O)(=O)c2ccc(Br)cc2)[C@H]1c1cccc(Br)c1)C(=O)O,IC50,GGTase-I,40 nM
O=C(O)C1=CCC(c2ccc(Cl)cc2)N(S(=O)(=O)c2ccc(Cl)cc2)C1c1cccc(Cl)c1 (stereo not drawn),inhibition of FTase activity (FIG. 16),FTase,no inhibition of FTase activity
CCCCCCS[C@@H]1[C@H](C(=O)O)[C@@H](c2ccc(Br)cc2)N(S(=O)(=O)c2ccc(C)cc2)[C@H]1CCC (relative stereo),appearance of the unprenylated (unprocessed) Rap1 band,[1],did not induce appearance of unprenylated Rap1
same,mobility shift of H-Ras (protein farnesylation),[2],did not cause mobility shift
same,mode of RabGGTase inhibition with respect to GGPP,RabGGTase,uncompetitive inhibitors
same,intracellular localization of Rab5b (soluble vs membrane fraction),[3],increase of Rab5b protein in the soluble fraction
